Assay [1] addresses T1, caspase-8 (Homo sapiens, UniProt Q14790). Put plainly: Actual measured Ki of aldehyde-type peptide inhibitors (Garcia-Calvo et al.). It is filed as biochemical. Conditions: converted from measured Ki by ΔG=RT ln Ki.
The target in assay [2] is T1, caspase-8. The note with it: peptide of the aldehyde type; read-out: Ki, actual measured value; cited from earlier work.

By UniProt entry, the sequences of proteins in these tests, tags left out. Residues count along the entry.
UniProt Q14790, 385-479 limits assumed, species assumed: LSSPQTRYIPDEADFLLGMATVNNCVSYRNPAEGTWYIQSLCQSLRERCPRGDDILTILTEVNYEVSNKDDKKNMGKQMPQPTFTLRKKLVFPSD
UniProt Q14790, 217-374 limits assumed, species assumed: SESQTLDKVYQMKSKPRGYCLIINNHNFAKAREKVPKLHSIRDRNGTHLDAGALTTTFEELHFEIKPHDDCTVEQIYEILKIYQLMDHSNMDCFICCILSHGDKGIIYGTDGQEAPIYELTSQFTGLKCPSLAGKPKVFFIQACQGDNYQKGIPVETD

A word on the Ki: it is the dissociation constant of the complex between target and ligand, obtained from inhibition or displacement. With Boc-IETD-CHO, the “Obs. ΔG” value at caspase-8 [1] was -12.25 kcal/mol. The Ki at caspase-8 [2] is 1.05 nM.

The record behind these values is patent US7660677B2, “Method of designing physiologically active peptide and use thereof” (priority 2002, dated 2010).
